Assay results from patent US12390423B2, “Avocatin B for the treatment of diseases and conditions” (priority 2019, dated 2025).

Conditions: skeletal muscle (soleus and gastrocnemius) and pancreas; printed as human subjects

## avocatin B [AvoB]
  Tissue accumulation following oral administration: accumulated in both skeletal muscle (soleus and gastrocnemius) and pancreas
